Tests used:
FLAG-tagged Bcl-2 = molecular target: T1, FLAG-tagged Bcl-2 (Homo sapiens, UniProt P10415); experiment: Co-immunoprecipitation in transfected 293T cells; type: binding; details: tagged full-length proteins
T1 construct: expressed in transfected cells; host or cells: HEK293T
Description: (§1) Equivalent ^35S-labeled lysates harvested from 293T cells were immunoprecipitated with antibodies to the HA, FLAG (FL) or control (C) tags.
(§2) The maintenance, transfection and metabolic labeling of the human embryonic kidney (HEK) 293T cells with ^35S-methionine/cysteine (NEN) as well as co-immunoprecipitation have been described (Huang et al., Supra; Moriishi et al., Proc Natl Acad Sci USA 96:9683-9688, 1999; O'Conner et al., Supra). Briefly, equivalent TCA-precipitable lysates were immunoprecipiated using the mouse monoclonal antibodies to HA (HA.11; CRP), FLAG (M2; Sigma) and control Glu-Glu (CRP) tags. The proteins were resolved by SDS:PAGE, transferred onto nitrocellulose membranes and detected by fluorography (Amplify; Amersham Biosciences).
(§3) To verify the in vitro findings, interactions of selected pairs of the full-length N-terminally tagged proteins were investigated in mammalian cells by co-immunoprecipitation. […] The cells were metabolically labeled with ^35S-methionine/cysteine to permit semi-quantitative assessment of any interaction between co-associating radiolabeled proteins.
(§4) To verify the in vitro findings, selected pairs of the full-length N-terminally tagged proteins associated in mammalian cells were investigated by co-immunoprecipitation. […]

The chains behind the UniProt entries cited, without tags or fusion partners.
UniProt P10415, whole entry: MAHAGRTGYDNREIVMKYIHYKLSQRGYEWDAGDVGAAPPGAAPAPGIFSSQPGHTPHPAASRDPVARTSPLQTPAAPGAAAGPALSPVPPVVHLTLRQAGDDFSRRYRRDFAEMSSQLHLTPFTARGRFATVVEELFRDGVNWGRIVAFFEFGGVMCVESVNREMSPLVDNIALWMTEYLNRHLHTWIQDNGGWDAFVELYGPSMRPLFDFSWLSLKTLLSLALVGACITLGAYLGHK
UniProt Q07817, whole entry: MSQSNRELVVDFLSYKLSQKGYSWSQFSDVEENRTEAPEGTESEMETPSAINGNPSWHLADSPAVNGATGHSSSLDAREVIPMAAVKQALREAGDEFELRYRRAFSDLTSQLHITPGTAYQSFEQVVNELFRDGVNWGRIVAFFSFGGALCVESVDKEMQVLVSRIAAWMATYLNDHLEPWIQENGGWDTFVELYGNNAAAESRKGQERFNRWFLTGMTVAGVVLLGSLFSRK

FLAG-tagged Bcl-xL = molecular target: T2, FLAG-tagged Bcl-xL (Homo sapiens, UniProt Q07817); experiment: Co-immunoprecipitation in transfected 293T cells; type: binding; details: tagged full-length proteins
T2 construct: expressed in transfected cells; host or cells: HEK293T
Description: as §1, §2, §3, §4

- interaction with Bcl-2 by co-immunoprecipitation (FLAG-tagged Bcl-2): well
- interaction with Bcl-xL by co-immunoprecipitation (FLAG-tagged Bcl-xL): well
B1: Puma: full-length human BH3-only protein Puma expressed in cells (protein, UniProt Q9BXH1 1-193, looked up)
chain: MARARQEGSSPEPVEGLARDGPRPFPLGRLVPSAVSCGLCEPGLAAAPAAPTLLPAAYLCAPTAPPAVTAALGGSRWPGGPRSRPRGPRPDGPQPSLSLAEQHLESPVPSAPGALAGGPTQAAPGVRGEEEQWAREIGAQLRRMADDLNAQYERRRQEEQQRHRPSPWRVLYNLIMGLLPLPRGHRAPEMEPN
modifications: full-length
notes: full-length human BH3-only protein Puma expressed in cells
